By UniProt entry, the sequences of proteins in these tests, tags left out.
UniProt P81908, whole entry: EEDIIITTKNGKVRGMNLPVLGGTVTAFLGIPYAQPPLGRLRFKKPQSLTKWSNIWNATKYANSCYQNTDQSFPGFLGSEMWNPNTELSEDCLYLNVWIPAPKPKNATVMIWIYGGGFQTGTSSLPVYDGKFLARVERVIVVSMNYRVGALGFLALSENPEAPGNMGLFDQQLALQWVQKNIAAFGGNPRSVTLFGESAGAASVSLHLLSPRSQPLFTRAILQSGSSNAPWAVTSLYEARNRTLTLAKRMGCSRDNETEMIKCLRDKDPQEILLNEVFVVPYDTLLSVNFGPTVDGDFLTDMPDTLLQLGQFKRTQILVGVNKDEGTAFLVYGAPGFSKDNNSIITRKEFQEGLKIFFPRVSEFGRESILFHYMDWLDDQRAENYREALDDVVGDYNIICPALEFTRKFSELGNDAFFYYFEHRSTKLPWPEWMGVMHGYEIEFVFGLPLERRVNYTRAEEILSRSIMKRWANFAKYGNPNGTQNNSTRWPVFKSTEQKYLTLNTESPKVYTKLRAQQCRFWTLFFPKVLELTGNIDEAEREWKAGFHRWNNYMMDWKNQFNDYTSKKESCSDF

In PMC6711031, “Discovery of new butyrylcholinesterase inhibitors via structure-based virtual screening” (Journal of Enzyme Inhibition and Medicinal Chemistry, 2019):

Biological target: T1, BChE from equine serum (Equus caballus, UniProt P81908)
T1 construct: BChE from equine serum (Sigma); purchased Sigma; host or cells: equine serum
Format: biochemical
Conditions: eqBChE 0.22 U/mL, Tris-HCl pH 8.0, 20 min preincubation at 37 °C, butyrylthiocholine iodide 0.5 mM, read at 412 nm
Protocol: Selected hits were obtained from NCI and they were provided as dry powders in variable quantities (5–10 mg). […] Subsequently, they were diluted to the required concentrations with Tris buffer pH 8.0 for the assay. Enzymatic inhibition assays were performed on BChE from equine serum (Sigma), according to the spectrophotometric Ellman's method. The experiment was performed in 48-well plates in a final volume of 100 µL. Each well contained 0.22 U/mL eqBChE dissolved in Tris–HCl buffer, pH 8.0. They were preincubated for 20 min at different compound concentrations at 37 °C. Then 0.5 mM butyrylthiocholine iodide (Sigma) and 0.35 mM 5,5′-dithiobis -2-nitrobenzoico (DTNB; Sigma) were added. Colour development was measured spectrophotometrically at 412 nm using microplate reader (BioTek ELx800) at a rate of one measurement per minute over 15 min period. […] All samples were assayed in at least duplicate measurements. In general, the amount of DMSO was kept below 1% in the assay. IC50 values were determined graphically from inhibition curves using Graph Pad prism version 6, Graph Pad Software, Inc..

## CNC(=O)Oc1ccc2c(c1)[C@]1(C)CCN(C)[C@@H]1N2C [Eserine, reference compound]
  IC50: 0.04 ± 0.0001 µM
